Measurements: patent US20180280393A1, “METHODS AND COMPOSITIONS FOR TREATMENT OF METASTATIC AND REFRACTORY CANCERS AND TUMORS” (The Wistar Institute of Anatomy and Biology, priority 2015, published 2018)

Tested on: human T cells
Experiment: Cytokine rescue of human T cell proliferation from MEK inhibition
Type: cell-based
Details: GDC0973 or trametinib
Description: FIG. 2A is a graph showing that IL-15 can rescue T cell functions from MEK inhibitors. A proliferation of human PBMCs activated with ConA+/−IL-2 (20 U/ml) and IL-7 (2 ng/ml) was quantified with the division index and plotted as percent of the corresponding vehicle treatment for each group. Averages from 3 independent experiments. *=P<0.05 t-test vs ConA only.
Proliferation of CD8 T cells after 7 days is shown.
FIG. 2D is a graph showing that human PBMCs were activated as in FIG. 2B with the indicated compounds, BKM120=2 μM. Division index of CD8 T cells as percent of vehicle alone is shown as means from 3 different donors. *=P<0.05 compared to trametinib 5000 nM, #=P<0.05 compared to trametinib 5000 nM+IL-15.
FIG. 10 is a table that illustrates that IL-15, IL-2, and IL-7 can rescue T cell proliferation from MEK inhibition. […]
T cell stimulation—For human T cell proliferation assays, peripheral blood lymphocytes were obtained by leukapheresis/elutriation and Miltenyi bead-purified and K562 cells expressing human CD32 were generated as previously described^41. […] Proliferation of stimulated T cells was determined 7 days later by FACS and Division Index was calculated using FlowJo software.

## IL-2: recombinant human IL-2 (Peprotech)
  rescue of T cell proliferation in the presence of the MEK inhibitors: able to rescue T cell proliferation
